How the values of series [1] were obtained:
After a 24-h equilibration period at 37 °C, samples were quenched with 4 volumes of 90% (vol/vol) acetonitrile and 10% (vol/vol) methanol containing internal standard. Then, they were quantified using the AB Sciex API 4000 LC–MS/MS system (GenTech Scientific) with electrospray ionization in positive mode and multiple-reaction monitoring and were analysed using Analyst 1.6.1 software. The fold change value in 100% rhesus plasma was then calculated using the plasma/CCM ratio after correcting for the sample dilution factor and the percentage of free fraction in the matrix.

Series [2] relates to SHIV-SF162P3. Briefly: Repeated escalating-dose rectal SHIV challenge study (plasma viraemia by gag RT-qPCR). It is filed as in vivo, rhesus macaques of Indian origin. The note with it: Cox proportional hazard model. The procedure:
For the challenge study, 24 outbred rhesus macaques of Indian origin were assigned to the three study groups with even sex and weight distributions. All animals were housed at Alpha Genesis (Yemassee, SC), and all procedures were conducted in compliance with all relevant local, state and federal regulations and were approved by the Alpha Genesis IACUC. […] The injection sites were monitored daily by veterinary staff for 3 days. Beginning in week 1, animals in all three groups were challenged by the intrarectal route with 1 ml of RPMI containing the specified dilution of a 3.62 × 10^3 TCID50 SHIV-SF162P3 stock. At each respective time point, the challenges were performed on the same day, using the same virus stock and inoculation method across the three groups. […]
Protection against acquired infection was analysed using Cox proportional hazard regression models based on the exact partial likelihood for discrete time expressed in weeks, which explicitly accounts for the time-varying viral challenge dose in the model. The hazard ratios with 95% confidence intervals for per-exposure relative reductions in acquisition risk were calculated for the GS-CA1-treated groups, and the results were compared with those for the vehicle-treated control group. […]
(Real-time PCR tracks product formation cycle by cycle.)

Values joined by “and” are separate entries in the source; they are usually repeats but may differ in a detail not shown here. Equal values may be shown once.

As for `CC(C)(C#Cc1ccc(-c2ccc(Cl)c3c(NS(=O)(=O)C4CC4)nn(CC(F)F)c23)c([C@H](Cc2cc(F)cc(F)c2)NC(=O)Cn2nc(C(F)F)c3c2C(F)(F)[C@@H]2C[C@H]32)n1)S(C)(=O)=O` [GS-CA1], the “Rhesus EQD plasma shift” value in series [1] (extrapolated to 100% rhesus plasma vs CCM) was 15.8 fold. For the same compound, the “Ratio, 10% Indian rhesus monkey plasma against CCM” value in series [1] (individual experiments) was 1.82 and 1.31 and 1.59. The “Mean (Ratio), 10% Indian rhesus monkey plasma against CCM” value in series [1] (mean of three) was determined as 1.58. Moreover, the “Hazard ratio (95% CI)” value in series [2] (150 mg/kg single s.c. vs vehicle) is given as 0.127 (0.03–0.51); in series [2] (300 mg/kg single s.c. vs vehicle) it was 0.033 (0.0059–0.188).

The values are drawn from article PMC8753592, “Long-acting capsid inhibitor protects macaques from repeat SHIV challenges” (Nature, 2021).
